This note sets out measurements from patent US8809358B2, “Use of IκB-kinase inhibitors in pain therapy” (Sanofi-Aventis Deutschland GmbH, priority 2002, dated 2014).

By UniProt entry, the sequences of proteins in these tests, tags left out. Where a name states a change or a piece, a line headed by the entry shows the natural chain unless it says otherwise.
UniProt O14920: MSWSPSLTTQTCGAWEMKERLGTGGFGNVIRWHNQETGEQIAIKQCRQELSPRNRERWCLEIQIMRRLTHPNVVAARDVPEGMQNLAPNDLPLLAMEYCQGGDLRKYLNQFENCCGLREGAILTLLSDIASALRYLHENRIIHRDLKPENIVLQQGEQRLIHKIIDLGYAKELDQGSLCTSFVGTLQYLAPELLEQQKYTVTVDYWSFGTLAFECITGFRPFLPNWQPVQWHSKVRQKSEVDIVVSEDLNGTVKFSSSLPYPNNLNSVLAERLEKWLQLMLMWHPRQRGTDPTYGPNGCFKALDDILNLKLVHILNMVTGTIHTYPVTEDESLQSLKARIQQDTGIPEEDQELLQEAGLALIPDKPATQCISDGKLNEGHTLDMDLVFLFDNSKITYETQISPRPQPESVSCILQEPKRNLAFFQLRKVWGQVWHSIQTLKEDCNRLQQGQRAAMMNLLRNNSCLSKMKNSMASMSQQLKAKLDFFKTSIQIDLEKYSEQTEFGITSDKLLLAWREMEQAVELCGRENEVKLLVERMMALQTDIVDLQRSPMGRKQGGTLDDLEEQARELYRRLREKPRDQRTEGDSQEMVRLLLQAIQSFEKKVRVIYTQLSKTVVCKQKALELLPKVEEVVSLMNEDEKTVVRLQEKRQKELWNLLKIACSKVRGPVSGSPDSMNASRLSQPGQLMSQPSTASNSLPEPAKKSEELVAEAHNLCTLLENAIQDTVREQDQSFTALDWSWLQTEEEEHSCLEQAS
UniProt O15111: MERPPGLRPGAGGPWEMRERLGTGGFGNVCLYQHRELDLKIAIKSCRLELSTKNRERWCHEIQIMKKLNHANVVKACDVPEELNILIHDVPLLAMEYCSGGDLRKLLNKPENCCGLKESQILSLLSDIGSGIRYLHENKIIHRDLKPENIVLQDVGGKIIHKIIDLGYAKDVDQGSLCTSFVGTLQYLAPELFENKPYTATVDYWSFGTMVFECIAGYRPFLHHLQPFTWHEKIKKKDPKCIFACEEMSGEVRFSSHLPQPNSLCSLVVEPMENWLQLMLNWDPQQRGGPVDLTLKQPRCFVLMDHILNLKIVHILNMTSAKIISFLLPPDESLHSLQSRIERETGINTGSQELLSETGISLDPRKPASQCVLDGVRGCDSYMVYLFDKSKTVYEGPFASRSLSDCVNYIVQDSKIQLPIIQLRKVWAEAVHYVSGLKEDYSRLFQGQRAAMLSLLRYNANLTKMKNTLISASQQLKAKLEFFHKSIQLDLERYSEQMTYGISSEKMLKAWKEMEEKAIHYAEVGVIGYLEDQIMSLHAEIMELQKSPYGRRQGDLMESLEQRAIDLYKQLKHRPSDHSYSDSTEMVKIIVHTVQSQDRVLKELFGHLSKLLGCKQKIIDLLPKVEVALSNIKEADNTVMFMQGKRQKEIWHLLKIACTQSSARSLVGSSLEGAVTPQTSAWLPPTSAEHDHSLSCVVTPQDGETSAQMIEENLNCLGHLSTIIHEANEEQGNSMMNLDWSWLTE

The subject of assay [1] is Zymosan-induced paw inflammation. Nature of the assay: Zymosan-induced paw inflammation in the mouse: paw withdrawal time during thermal stimulation of the hind paw. Type of assay: in vivo. Conditions: 7-day study, orally twice daily. The method, then:
• Zymosan-induced paw inflammation in the mouse; • Parameter: paw withdrawal time during thermal stimulation of the hind paw. Experimental implementation: In short-term anesthesia using isoflurane, 25 μl of a suspension containing 50 mg of zymosan/ml were injected into the right hind paw of the experimental animal. The development of a hyperalgesia was then determined quantitatively as follows: Determining the Paw Withdrawal Time During Thermal Stimulation (Hargreave's Test; See Above). The experimental animal was placed in a transparent plastic chamber having a glass floor. As soon as the experimental animal was no longer moving, following the reconnaissance phase (about 5 min), an infrared light source was positioned directly below the hind paw to be stimulated and switched on. The lamp emitted focused infrared light of increasing intensity such that the skin temperature of the hind paw increased almost linearly. […] Shortly before the zymosan injection, and for from 7 to 14 days after the injection, the thermal pain threshold was determined once daily on the right hind paw and left hind paw. Subsequently, the integral of the area which was formed from the curves for the paw withdrawal times of the inflamed paw and the noninflamed paw (AUC, area between the curves, see tables 5 and 6) was determined as a measure of the hyperalgesia. […]

The target of a further assay is T1, IκB-kinase (Homo sapiens, UniProt O14920+O15111).
T1 construct: endogenous in cells; host or cells: HeLa S3 cell extract S100; ammonium sulfate cut and Superose-6 gel filtration (670 kDa fractions)
Put plainly: IκB-Kinase ELISA. It is filed as biochemical. The method, then:
The activity of the IκB-kinase was determined using an ELISA which comprised a biotinylated substrate peptide, which contained the amino acid sequence in the IκB protein from serine 32 to 36, and a specific polyclonal or monoclonal antibody (e.g. from New England Biolabs, Beverly, Mass., USA, Cat.: 9240), which only bound to the phosphorylated form of the IκB peptide. This complex was immobilized on an antibody-binding (protein A-coated) plate and detected using a conjugate composed of a biotin-binding protein and HRP (e.g. streptavidin-HRP). The activity was quantified with the aid of a standard curve constructed using substrate phosphopeptide.
In order to obtain the kinase complex, 10 ml of HeLa S3 cell extract S100 were diluted with 40 ml of 50 mM HEPES, pH 7.5, brought to 40% with respect to ammonium sulfate and incubated on ice for 30 minutes. The precipitated pellet was dissolved in 5 ml of SEC buffer (50 mM HEPES, pH 7.5, 1 mM DTT, 0.5 mM EDTA, 10 mM 2-glycerophosphate), centrifuged at 20 000 g for 15 minutes and filtered through a 0.22 μm filter. […] The absorption was measured at 450 nm. […] This standard curve was used to quantify the enzyme activity or its inhibition by the test substances.
(In general: ELISA stands for enzyme-linked immunosorbent assay.)

The structures appear in SMILES notation.

In general, IC50 refers to the point on the concentration scale where inhibition reaches its midpoint. Low readings indicate higher potency, high ones lower potency.

Regarding `CNc1nccc(-c2cc3cc(C(=O)N[C@@H](CN(c4ccccc4)c4ccccc4)c4n[nH]c(=O)o4)ccc3[nH]2)n1` [Compound 13, N—[(S)-2-diphenylamino-1-(5-oxo-4,5-dihydro[1,3,4]oxadiazol-2-yl)ethyl]-2-(2-methylaminopyrimidin-4-yl)-1H-indole-5-carboxamide], the “single dose giving a significant therapeutic effect as compared with the vehicle group” value in assay [1] is on record as no less than 8.3 mg/kg. The compound also registered an IC50 against IκB-kinase of 50 nM.
